This test addresses Aldo-keto reductase family 1 member B1 (Homo sapiens, UniProt P15121).

`O=C(O)Cc1nn(Cc2nc3cc(C(F)(F)F)ccc3s2)c(=O)c2ccccc12` [ZOPOLRESTAT]: the Ki came out at 19 nM.

These data come from ChEMBL document CHEMBL1125712 (J Med Chem, 1991).
